The subject of this data set is P-gp. Briefly: Compartmental models of apical efflux fit to permeability data. The note with it: 5C model, asa = 1, lipid content = 10%.

We go through 1 molecule from article PMC3946900 (Pharmaceutical research, 2013).

SMILES strings stand for the structures.

`Nc1cc(N2CCCCC2)nc(N)[n+]1[O-]` [Minoxidil]: the “CLi (diffusion clearance into an explicit membrane compartment)” value came out at 0.3 µL/min.
